Each structure is given as a SMILES string. This is a selection; strong and weak results do not stand in their true shares. Activity calls are given as the source filed them. Rule as the data show it: active = percent response above about 24% (passing the limit was not always enough); inactive = the rest.

This assay has as its system MEKK2 (MAP3K2) mutant PB1 domain binding to MEK5, human. Nature of the assay: MEK5 binding signal on mutant MEKK2 PB1, primary screen, biochemical, multiplex bead flow cytometry, Alexa488-MEK5 (AID 1530). Particulars: at 10 µM, hits give high values.
Regarding `CCN1CCC(Nc2cccc(F)c2)CC1`, the percent response is inactive: 0%.

`CN(C)c1ccc(C(=O)NCC2(N3CCCCC3)CCCCC2)cc1`: the percent response is inactive: -1%.

For the compound `COc1cc(OC)cc(C(=O)NCC2(N3CCCCC3)CCCCC2)c1`, the percent response is inactive: 8%.

`Fc1ccccc1NC1CCN(Cc2ccccc2)CC1`: the percent response was inactive: -2%.

As for `CCC(CO)(C(=O)OC1CN2CCC1CC2)c1ccccc1` (centres undefined), the percent response was inactive: 7%.

For `COc1cccc(C(=O)N(c2cc(C)cc(C)c2)C2CCN(C(=O)OC(C)(C)C)CC2)c1`, the percent response was inactive: 1%.

For `COc1cc(OC)cc(C(=O)NCC2(N3CCOCC3)CCCCC2)c1`, the percent response is inactive: 1%.

`CCCOc1ccc(C)cc1CN(CCCl)CCCl`: the percent response was inactive: -5%.

Regarding `CN1CCC(Nc2ccc(Cl)cc2)CC1`, the percent response is inactive: 3%.

As to `CN1CCC(Nc2ccc(F)c(Cl)c2)CC1`, the percent response is inactive: 2%.

Turning to `CCOc1ncccc1C(=O)NCC1(N2CCOCC2)CCCCC1`, the percent response was inactive: -5%.

For `CCCOc1ccc(C(=O)NCC2(N(C)C)CCCCC2)cc1`, the percent response was inactive: 8%.

Turning to `O=C(O)C1(Nc2ccccc2)CCN(Cc2ccccc2)CC1`, the percent response is inactive: 0%.

In the case of `CC(C)(C)OC(=O)N1CCC(Nc2ccccc2)CC1`, the percent response is inactive: 2%.

Take `CCOC(=O)N1CCC(Nc2ccc(C)cc2)CC1`: the percent response is inactive: 4%.

Turning to `O=C(OC1CN2CCC1CC2)C1c2ccccc2C=Cc2ccccc21` (centres undefined), the percent response is inactive: 9%.

For `COc1ccc(C(=O)NCC2(N3CCOCC3)CCCCC2)cc1OC`, the percent response is inactive: -14%.

As for `CCCN1CCC(Nc2cc(OC)cc(OC)c2)CC1`, the percent response was inactive: 7%.

`c1ccc(CN2CCC(Nc3ccccc3)CC2)cc1`: the percent response is inactive: -1%.

For `CN(C)C1(CNC(=O)c2cccc(C#N)c2)CCCCC1`, the percent response was inactive: 8%.

Take `CC(C)(C)OC(=O)N1CCC(N(C(=O)c2ccccc2)c2ccc(Cl)cc2)CC1`: the percent response is inactive: -3%.

Regarding `N#Cc1ccc(C(=O)NCC2(N3CCCCC3)CCCCC2)cc1`, the percent response was inactive: 8%.

With `O=C(NCC1(N2CCCCC2)CCCCC1)c1cccc(C(F)(F)F)c1`, the percent response was inactive: 0%.

Take `COc1ccc(NC2CCN(C(=O)OC(C)(C)C)CC2)cc1`: the percent response is inactive: -12%.

Consider `CN1CCN(CCOC(=O)C(O)(c2ccccc2)c2ccccc2)CC1`, for which the percent response was inactive: 0%.

In the case of `O=C(NCC1(N2CCOCC2)CCCCC1)c1cc(=O)[nH]c2ccccc12`, the percent response is inactive: 5%.

On to `COc1cc(C(=O)NCC2(N3CCCCC3)CCCCC2)ccc1OC(F)F`, for which the percent response was inactive: 1%.

In the case of `O=C(NCC1(N2CCCCC2)CCCCC1)c1ccc(OC(F)F)cc1`, the percent response is inactive: -1%.

Regarding `O=C(NCC1(N2CCCCC2)CCCCC1)c1cccc([N+](=O)[O-])c1`, the percent response was inactive: -2%.

On to `N#CC1(Nc2ccccc2)CCN(CCc2ccccc2)CC1`, for which the percent response is inactive: 11%.

`CCN1CCC(Nc2ccc(Cl)cc2)CC1`: the percent response was inactive: 4%.

Regarding `CN1CCC(Nc2cccc(F)c2)CC1`, the percent response is inactive: -3%.

In the case of `CCCOc1ccc(C(=O)NCC2(N(C)C)CCCCC2)cc1OC`, the percent response is inactive: 2%.

In the case of `CN(C)c1cccc(C(=O)NCC2(N3CCCCC3)CCCCC2)c1`, the percent response is inactive: 7%.

Consider `COc1ccc(CN(CCCl)CCCl)cc1Cl`, for which the percent response is inactive: -15%.

With `CC(C)c1ccc(NC2CCN(C(=O)OC(C)(C)C)CC2)cc1`, the percent response is inactive: -1%.

In the case of `COc1cc(OC)c(C(=O)NCC2(N(C)C)CCCCC2)cc1OC`, the percent response was inactive: 3%.

In the case of `O=C(NCC1(N2CCOCC2)CCCCC1)c1cc2ccccc2o1`, the percent response was inactive: 5%.

As for `Cc1cc(C)cc(N(C(=O)c2ccccc2)C2CCN(C(=O)OC(C)(C)C)CC2)c1`, the percent response was inactive: 13%.

As to `CCOC(=O)N1CCC(Nc2ccc(OC)cc2)CC1`, the percent response is inactive: -5%.

As to `O=C(OC1CN2CCC1CC2)C1c2ccccc2Oc2ccccc21` (centres undefined), the percent response was inactive: 6%.

On to `N#CC1(Nc2ccccc2)CCN(Cc2ccccc2)CC1`, for which the percent response is inactive: 3%.

In the case of `O=C(NCC1(N2CCCCC2)CCCCC1)c1ccc(=O)[nH]c1`, the percent response was inactive: 8%.

For `COc1ccc(C(=O)NCC2(N3CCCCC3)CCCCC2)c(OC)c1OC`, the percent response is inactive: 3%.

As for `CC(C)(C)OC(=O)N1CCC(N(C(=O)c2ccccc2)c2ccc(F)cc2)CC1`, the percent response is inactive: 2%.

For `COc1ccc(C(=O)NCC2(N3CCCCC3)CCCCC2)cc1`, the percent response was inactive: 1%.

As for `CSc1ccccc1C(=O)NCC1(N2CCCCC2)CCCCC1`, the percent response is inactive: -2%.

With `Cc1ccc(OCC(C)C)c(CN(CCCl)CCCl)c1`, the percent response is inactive: 5%.

On to `COc1cc(C(=O)NCC2(N(C)C)CCCCC2)ccc1OC(F)F`, for which the percent response was inactive: 2%.

On to `CCOC(=O)N1CCC(Nc2cccc(C)c2)CC1`, for which the percent response is inactive: 6%.

Regarding `CCOc1ccc(C)cc1CN(CCCl)CCCl`, the percent response is inactive: -1%.

In the case of `CCOC(=O)N1CCC(Nc2ccc(F)cc2)CC1`, the percent response was inactive: 4%.

With `COc1ccc(NC2CCN(CCc3ccccc3)CC2)c(OC)c1`, the percent response is inactive: 10%.

Turning to `O=C(NCC1(N2CCCCC2)CCCCC1)c1ccc(F)cc1`, the percent response was inactive: -3%.

The values above are taken from PubChem BioAssay AID1530 (NMMLSC, 2009).
